Reference: patent US9746470B2, “Chaperone interaction assays and uses thereof” (Whitehead Institute for Biomedical Research, priority 2011, dated 2017)
Entries after “also recorded” stand apart in the source; their conditions may differ.

Key:
M091 tumor xenografts = details: mice; crizotinib (100 mg/ml) orally by gavage, daily; vs vehicle; FIG. 6(E)
BCR-ABL = BCR-ABL (Homo sapiens, UniProt P00519); experiment: HSP90β-BCR-ABL interaction, QLPPI assay
BCR-ABL (T315I) = BCR-ABL (T315I) (Homo sapiens, UniProt P00519, T315I); experiment: HSP90β-BCR-ABL T315I interaction, QLPPI assay

| SMILES | M091 tumor xenograft growth (M091 tumor xenografts) | effect on interaction between HSP90β and BCR-ABL (BCR-ABL) | effect on interaction between HSP90β and BCR-ABL T315I mutant (BCR-ABL (T315I)) |
| --- | --- | --- | --- |
| C[C@@H](Oc1cc(-c2cnn(C3CCNCC3)c2)cnc1N)c1c(Cl)ccc(F)c1Cl [Crizotinib] | dramatically inhibited; also recorded: inhibited growth |  |  |
| CN(C)S(=O)(=O)c1ccc2c(c1)/C(=C/c1cc3c([nH]1)CCCC3)C(=O)N2 [SU6656] |  | inhibits interaction | inhibits interaction |
